## Apparent affinities of Ab-95 variants for a coronavirus HR2 peptide

Reference: Engelhart et al. 2022, doi:10.1038/s41597-022-01779-4. File: FLAb, binding data.

Target: peptide PDVDLGDISGINAS, taken from heptad repeat 2 (HR2) of SARS-CoV-2 spike.

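The starting antibody came from a phage panning campaign against this peptide. In library AAYL52, one, two or three CDR residues were substituted; doubles and triples were drawn at random. The scFvs were displayed on barcoded MATa yeast, the peptide on MATalpha yeast. Binding brings cells together so that they mate, and sequencing counts the barcode pairs among the diploids. A regression on co-assayed BCL2-family reference pairs converts the normalised counts of each replicate to an apparent Kd. Mating was done three times.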

Ab-95 is the parent antibody, in scFv form: VH, then the linker GGGGSGGGGSGGGGS, then VL. The heavy chain is unchanged in all variants.
VH: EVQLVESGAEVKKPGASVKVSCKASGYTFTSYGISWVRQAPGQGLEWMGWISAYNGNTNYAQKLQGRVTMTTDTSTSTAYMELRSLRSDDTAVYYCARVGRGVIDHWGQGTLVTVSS
VL: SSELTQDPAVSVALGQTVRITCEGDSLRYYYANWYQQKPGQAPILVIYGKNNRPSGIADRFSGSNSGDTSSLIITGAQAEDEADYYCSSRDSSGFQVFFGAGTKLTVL

Variants are written as CDR1, CDR2 and CDR3 of the light chain (limits as in the source). Parent: EGDSLRYYYAN, GKNNRPS, SSRDSSGFQVF. Values are log10 of the apparent Kd in nM; lower means stronger binding. The mean shown is taken over the replicates in which the pair was detected. An entry "nd" has no value in the source: the pair was not observed among the diploids in that replicate. This suggests poor binding but is not conclusive. As a blank, each scFv also met three strains without target: over library AAYL52, 28% of these pairings were detected, typically at 3.91 and seldom below 2.90. For each scFv, signals with the empty controls are counted beside the result, with their mean in brackets.

| CDR-L1 | CDR-L2 | CDR-L3 | log10 Kd (nM) by replicate | log10 Kd (nM), mean | control signals |
|---|---|---|---|---|---|
| EGDSLRYYYAQ | GKNNRRS | SSRDSSGFQVF | 3.80 / nd / nd | 3.80 | 2/9 (3.00) |
| EGVSLRYMYAN | GKNNRPL | SSRDSSGFQVF | 2.29 / 2.13 / 1.82 | 2.08 | 1/9 (3.41) |
| EGDSLRYYYAN | GKNNEPS | SSKDSAGFQVF | nd / 4.72 / nd | 4.72 | 1/9 (3.64) |
| EGDSLRYYYAN | RKNNRPG | SSRDSSKFQVF | nd / nd / nd | nd | 1/9 (3.13) |
| EHDSLTYYYAN | GKNIRPS | SSRDSSGFQVF | 3.49 / 3.56 / 2.78 | 3.27 | 2/9 (4.00) |
| EGDSLRYYYQN | GINNAPS | SSRDSSGFQVF | 3.80 / 3.13 / nd | 3.46 | 2/9 (4.13) |
| MGDSLRFYYKN | GKNNRPS | SSRDSSGFQVF | 2.42 / 2.05 / 2.97 | 2.48 | 4/9 (3.63) |
| MGDSLRYYYAN | GKNNRPS | SSRDMSGFQVN | 4.21 / 3.47 / nd | 3.84 | 1/9 (3.65) |
| EGYILRNYYAN | GKNNRPS | SSRDSSGFQVF | 3.15 / 4.31 / 4.04 | 3.84 | 5/9 (4.18) |
| EGDSLRYYYAN | GKWNRPS | STRDSCGFQVF | 3.46 / nd / nd | 3.46 | 1/9 (4.21) |
| NNDSLRYYYAN | GKNERPS | SSRDSSGFQVF | 4.57 / 3.15 / nd | 3.86 | 2/9 (3.40) |
| EGDSLFYYYAN | LKNNRPS | SARDSSGFQVF | nd / nd / nd | nd | 0/9 |
| EGDSLRYYYAN | GKNRRPS | SPRDSSGFQVF | 3.44 / nd / 4.52 | 3.98 | 1/9 (3.87) |
| EGDSLRYYYAN | GKNNRPT | SSRDSSGDQVF | 2.69 / 2.71 / 3.78 | 3.06 | 3/9 (4.00) |
| EGDSLRLYYAN | GDNNRPS | SSRDSSGFQFF | 3.74 / 5.56 / 3.73 | 4.34 | 5/9 (4.09) |
| ELDSLRYYYAN | GKNNRPS | GSRDSSGFQVF | 4.46 / nd / nd | 4.46 | 4/9 (4.44) |
| MGDSLRYYYAN | GKNNRPS | SLRDSQGFQVF | 2.74 / 3.17 / 3.60 | 3.17 | 4/9 (4.72) |
| EGDSLRYYYAN | GKNRFPS | SSRDSSGQQVF | 3.84 / 3.07 / 3.99 | 3.63 | 3/9 (3.58) |
| EGDSLRYYYAF | GKNNRPS | ASRDSSGFQVT | nd / nd / nd | nd | 1/9 (4.50) |
| EGDSLRYYYAM | GKNCRPS | SSRDSSGFQVF | 4.09 / 3.87 / 3.91 | 3.96 | 5/9 (4.00) |
| EGDRLRYYYAN | GKNNRPS | SARDSSGMQVF | 3.77 / 3.61 / 4.67 | 4.02 | 4/9 (4.16) |
| EGDSLRHYYAN | GKNNRPS | KSRDSKGFQVF | nd / nd / nd | nd | 0/9 |
| EGMSLRYYYAN | GKNNRPS | SARDSSRFQVF | nd / nd / nd | nd | 0/9 |
| EGDSLRYYYAN | GKNNRPS | SSRHHMGFQVF | 3.83 / 5.21 / 4.33 | 4.46 | 1/9 (4.01) |
| EGDFSRYYYAN | GKNNRPS | SSRDSMGFQVF | 3.94 / nd / nd | 3.94 | 2/9 (3.41) |
| EVDSLLYYYAN | GKNHRPS | SSRDSSGFQVF | nd / 5.56 / nd | 5.56 | 4/9 (4.23) |
| AGASLRYKYAN | GKNNRPS | SSRDSSGFQVF | 1.63 / 1.64 / 1.11 | 1.46 | 1/9 (4.81) |
| EGDSLRYYYAW | GKNNRPS | SSRDSSGQNVF | nd / 4.00 / nd | 4.00 | 0/9 |
| EGDSLRYYYAN | GKFNRPS | SSRTSSKFQVF | 4.40 / 3.98 / 4.19 | 4.19 | 2/9 (3.26) |
| AGDSLRYYYAN | GPNNRPS | SSRDSFGFQVF | 2.74 / 2.75 / 2.44 | 2.64 | 6/9 (4.02) |
| EGDSLEYYYAL | GKNNRVS | SSRDSSGFQVF | nd / nd / 3.44 | 3.44 | 0/9 |
| EGDSLRYYYAN | GKDNRPS | SSRNSSGFQVF | 2.50 / 2.41 / 1.56 | 2.16 | 3/9 (3.79) |
| EGDSLRYTYAN | GHNNRPS | SSRDSSGFQVS | 1.71 / 1.78 / 1.43 | 1.64 | 4/9 (4.09) |
| EGDSLRYRYAN | GKNNRPS | SSRDSVGFQVA | 2.53 / 2.45 / 2.07 | 2.35 | 4/9 (4.03) |
| EGDSLRYYYAN | GINNRFS | SSRDSSIFQVF | 4.48 / nd / 4.40 | 4.44 | 2/9 (3.64) |
| EGDSLWYYYAN | GKNNRPS | YSRDFSGFQVF | 5.86 / 4.65 / 4.40 | 4.97 | 3/9 (3.05) |
| HGDSLRYYYAN | GKNNRCS | SSRDSSGFQVE | nd / nd / nd | nd | 0/9 |
| EGDSLRYYYAN | GKNNRMV | SSRDSSGFDVF | 3.82 / 3.33 / 3.57 | 3.57 | 3/9 (3.97) |
| EGDSLRYQYAN | GKNNRPN | SSVDSSGFQVF | 1.40 / 1.63 / 1.22 | 1.42 | 2/9 (3.15) |
| EGDSLRYYYAK | GKGNRPS | SSRDSSGFQDF | nd / nd / 4.42 | 4.42 | 4/9 (4.09) |
| EGDSLIYYYAN | GKNNRPS | SSRDSSGFQST | 4.98 / nd / nd | 4.98 | 1/9 (5.32) |
| KGDSLRCYYAN | GKNNRPS | STRDSSGFQVF | 3.59 / 3.67 / 2.59 | 3.28 | 2/9 (4.53) |
| EGDSLRYYYAH | GKNNRPG | SKRDSSGFQVF | nd / nd / nd | nd | 3/9 (3.47) |
| WGDSLRHYYIN | GKNNRPS | SSRDSSGFQVF | nd / 4.62 / nd | 4.62 | 2/9 (3.37) |
| KGDSLRYYYAN | RKNNRPS | SWRDSSGFQVF | nd / nd / nd | nd | 1/9 (3.57) |
| EGDSLRYYYAN | HKNNRAS | SYRDSSGFQVF | 3.31 / 4.78 / 3.15 | 3.75 | 6/9 (4.12) |
| EGDSLRYYYAP | GKNNRPS | SSRDSSHFQVM | 4.88 / nd / nd | 4.88 | 2/9 (4.36) |
| EGDSLRYYYAN | YQNNRPS | SSRDSSGCQVF | 5.14 / 4.49 / 4.53 | 4.72 | 5/9 (4.12) |
| EGNSLRQYYAN | GKNNRPS | SFRDSSGFQVF | 2.15 / 2.47 / 3.00 | 2.54 | 4/9 (4.89) |

Extract of 7 entries:

{"CDR-L1": "EGDSLRYYYAN", "CDR-L2": "GKNRRPS", "CDR-L3": "SPRDSSGFQVF", "log10 Kd (nM) by replicate": "3.44 / nd / 4.52", "log10 Kd (nM), mean": "3.98", "control signals": "1/9 (3.87)"}
{"CDR-L1": "EGDSLRYYYAK", "CDR-L2": "GKGNRPS", "CDR-L3": "SSRDSSGFQDF", "log10 Kd (nM) by replicate": "nd / nd / 4.42", "log10 Kd (nM), mean": "4.42", "control signals": "4/9 (4.09)"}
{"CDR-L1": "KGDSLRCYYAN", "CDR-L2": "GKNNRPS", "CDR-L3": "STRDSSGFQVF", "log10 Kd (nM) by replicate": "3.59 / 3.67 / 2.59", "log10 Kd (nM), mean": "3.28", "control signals": "2/9 (4.53)"}
{"CDR-L1": "EGDSLRYYYAN", "CDR-L2": "GINNRFS", "CDR-L3": "SSRDSSIFQVF", "log10 Kd (nM) by replicate": "4.48 / nd / 4.40", "log10 Kd (nM), mean": "4.44", "control signals": "2/9 (3.64)"}
{"CDR-L1": "KGDSLRYYYAN", "CDR-L2": "RKNNRPS", "CDR-L3": "SWRDSSGFQVF", "log10 Kd (nM) by replicate": "nd / nd / nd", "log10 Kd (nM), mean": "nd", "control signals": "1/9 (3.57)"}
{"CDR-L1": "EGDSLRYYYAN", "CDR-L2": "GKDNRPS", "CDR-L3": "SSRNSSGFQVF", "log10 Kd (nM) by replicate": "2.50 / 2.41 / 1.56", "log10 Kd (nM), mean": "2.16", "control signals": "3/9 (3.79)"}
{"CDR-L1": "WGDSLRHYYIN", "CDR-L2": "GKNNRPS", "CDR-L3": "SSRDSSGFQVF", "log10 Kd (nM) by replicate": "nd / 4.62 / nd", "log10 Kd (nM), mean": "4.62", "control signals": "2/9 (3.37)"}